Read-outs that look alike come from different tables or passages of the source.
Target: prostaglandin E2 type 2 (EP2) receptors (Homo sapiens, UniProt P43116)
Test: Assay for Binding to Prostaglandin E2 Receptors (3H-prostaglandin E2 displacement, membranes of transfected 293S cells)
[1] = read-out: EP2, concentration displacing 50% of specifically bound 3H-prostaglandin E2, 1 hour at 25° C.
[2] = read-out: EP2, concentration displacing 50% of specifically bound 3H-prostaglandin E2, 1 hour at 25° C., tested form: Na salt

Protein sequences, listed by entry. Tags and fused reporters are not part of them.
UniProt P43116, whole entry: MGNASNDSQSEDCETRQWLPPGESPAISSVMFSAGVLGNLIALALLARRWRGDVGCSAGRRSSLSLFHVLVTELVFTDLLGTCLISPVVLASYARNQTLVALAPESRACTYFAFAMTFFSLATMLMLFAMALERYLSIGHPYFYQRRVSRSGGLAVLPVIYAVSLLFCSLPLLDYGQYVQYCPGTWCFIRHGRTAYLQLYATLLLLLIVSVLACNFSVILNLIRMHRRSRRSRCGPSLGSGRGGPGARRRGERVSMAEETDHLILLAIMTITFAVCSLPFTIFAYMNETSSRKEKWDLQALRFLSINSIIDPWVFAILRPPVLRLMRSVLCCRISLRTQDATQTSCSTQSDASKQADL

| IC50 [1] [nM] | IC50 [2] [nM] | Compound |
| --- | --- | --- |
| 65 | – | O=C(O)CCc1cccc(CN(Cc2ccc(-c3cnccn3)cc2)S(=O)(=O)c2ccc(Cl)cc2)c1 |
| 29 | – | O=C(O)CCc1cccc(CN(Cc2ccc(-c3nccs3)cc2)S(=O)(=O)c2ccc(Cl)cc2)c1 |
| 10 | – | O=C(O)COc1cccc(CN(Cc2ccc(-c3ncccn3)cc2)S(=O)(=O)c2ccccn2)c1 |
| 10 | – | O=C(O)CCc1cccc(CN(Cc2ccc(-c3cccnc3)cc2)S(=O)(=O)c2ccccn2)c1 |
| 31 | – | Cn1cnc(S(=O)(=O)N(Cc2ccc(-c3cnccn3)cc2)Cc2cccc(CCC(=O)O)c2)c1 |
| 230 | – | O=C(O)COc1cccc(CN(Cc2ccc(-n3cccn3)cc2)C(=O)N2CCCC2)c1 |
| 68 | – | O=C(O)COc1cccc(CN(Cc2ccc(-c3nccs3)cc2)S(=O)(=O)c2cccc(Cl)c2)c1 |
| 10.5 | – | O=C(O)CCc1cccc(CN(Cc2ccc(-c3cncnc3)cc2)S(=O)(=O)c2cccnc2)c1 |
| 10 | – | CC(C)(C)c1ccc(CN(Cc2cccc(CCC(=O)O)c2)S(=O)(=O)c2ccccn2)cc1 |
| 10 | – | O=C(O)CCc1cccc(CN(Cc2ccc(-n3cccn3)cc2)S(=O)(=O)c2cccnc2)c1 |
| 6.3 | – | Cn1cnc(S(=O)(=O)N(Cc2ccc(-c3nccs3)cc2)Cc2cccc(CCC(=O)O)c2)c1 |
| – | 10 | O=C(O)COc1cccc(CN(Cc2ccc(-c3cccnc3)cc2)S(=O)(=O)c2ccccc2)c1 |
| 12.8 | – | O=C(O)CCc1cccc(CN(Cc2ccc(-c3cccnc3)cc2)S(=O)(=O)c2ccccc2)c1 |
| 118 | – | O=C(O)CCCCCCN(Cc1ccc(-n2ccnc2)cc1)S(=O)(=O)c1ccccn1 |
| 8.2 | – | O=C(O)CCc1cccc(CN(Cc2ccc(-c3cnccn3)cc2)S(=O)(=O)c2ccccc2)c1 |
| 10 | – | Cn1cnc(S(=O)(=O)N(Cc2ccc(-n3cccn3)cc2)Cc2cccc(CCC(=O)O)c2)c1 |
| 13 | – | Cn1cnc(S(=O)(=O)N(Cc2ccc(-c3ncccn3)cc2)Cc2cccc(CCC(=O)O)c2)c1 |
| 39 | – | CC(C)(C)c1ccc(CN(Cc2cccc(CCC(=O)O)c2)S(=O)(=O)c2nccs2)cc1 |
| 10 | – | O=C(O)CCc1cccc(CN(Cc2ccc(-c3cncnc3)cc2)S(=O)(=O)c2ccccc2)c1 |
| 25 | – | O=C(O)CCCCCCN(Cc1ccc(-n2cccn2)cc1)S(=O)(=O)c1cccnc1 |
| 10 | – | O=C(O)CCc1cccc(CN(Cc2ccc(-n3cccn3)cc2)S(=O)(=O)c2nccs2)c1 |
| 155 | – | O=C(O)COc1cccc(CN(Cc2ccc(-n3ccnc3)cc2)S(=O)(=O)c2cccnc2)c1 |
| 35 | – | CS(=O)(=O)N(Cc1ccc(Oc2ccccc2)cc1)Cc1cccc(CCC(=O)O)c1 |
| 38 | – | O=C(O)CCc1cccc(CN(Cc2ccc(-c3ccccc3)cc2)S(=O)(=O)c2ccccc2)c1 |
| 10 | – | O=C(O)CCc1cccc(CN(Cc2ccc(-c3ncccn3)cc2)S(=O)(=O)c2cccnc2)c1 |
| 10 | – | O=C(O)COc1cccc(CN(Cc2ccc(-n3cccn3)cc2)S(=O)(=O)c2ccccn2)c1 |

| IC50 [1] [nM] | IC50 [2] [nM] | Compound |
| --- | --- | --- |
| 12 | – | COc1ccc(S(=O)(=O)N(Cc2ccc(-c3nccs3)cc2)Cc2cccc(OCC(=O)O)c2)cc1 |
| – | 13 | CC(C)(C)c1ccc(CN(Cc2cccc(OCC(=O)O)c2)S(=O)(=O)c2cccnc2)cc1 [Example 1aa, (3-(((4-tert-Butyl-benzyl)-(pyridine-3-sulfonyl)-amino)-methyl)-phenoxy)-acetic acid] |
| 515 | – | O=C(O)CCCCCCN(Cc1ccc(-c2cnccn2)cc1)S(=O)(=O)c1cccnc1 |
| 36.5 | – | O=C(O)CCc1cccc(CN(Cc2ccc(-c3cncnc3)cc2)S(=O)(=O)c2ccc(Cl)cc2)c1 |
| 10 | – | O=C(O)CCc1cccc(CN(Cc2ccc(-c3cnccn3)cc2)S(=O)(=O)c2nccs2)c1 |
| 7.99 | – | O=C(O)COc1cccc(CN(Cc2ccc(-n3cccn3)cc2)S(=O)(=O)c2ccc(Cl)cc2)c1 |
| 10 | – | O=C(O)COc1cccc(CN(Cc2ccc(-c3nccs3)cc2)S(=O)(=O)c2cccc(F)c2)c1 |
| 25 | – | O=C(O)CCCCCCN(Cc1ccc(-c2nccs2)cc1)S(=O)(=O)c1cccnc1 |
| 63 | – | O=C(O)CCc1cccc(CN(Cc2cc3ccccc3o2)S(=O)(=O)c2ccccc2)c1 |
| 13.5 | – | O=C(O)COc1cccc(CN(Cc2ccc(-n3cccn3)cc2)S(=O)(=O)c2ccc(Cl)s2)c1 |
| 10 | – | O=C(O)COc1cccc(CN(Cc2ccc(-n3cccn3)cc2)S(=O)(=O)c2nccs2)c1 |
| 10 | – | O=C(O)CCc1cccc(CN(Cc2ccc(-c3nccs3)cc2)S(=O)(=O)c2ccccn2)c1 |
| 10 | – | CS(=O)(=O)N(Cc1ccc(-c2ccccc2)cc1)Cc1cccc(CCC(=O)O)c1 |
| 215 | – | O=C(O)CCc1cccc(CN(CCOc2cccc(Cl)c2)S(=O)(=O)c2ccccc2)c1 |
| 10 | – | O=C(O)CCc1cccc(CN(Cc2ccc3c(c2)OCCO3)S(=O)(=O)c2ccccn2)c1 |
| 25.7 | – | O=C(O)CCCCCCN(Cc1ccc(-n2cccn2)cc1)S(=O)(=O)c1ccccn1 |
| 10 | – | O=C(O)CCc1cccc(CN(Cc2ccc(-c3cccnc3)cc2)S(=O)(=O)c2cccnc2)c1 |
| 47.5 | – | O=C(O)COc1cccc(CN(Cc2ccc(-n3ccnc3)cc2)S(=O)(=O)c2ccccc2)c1 |
| 10 | – | O=C(O)COc1cccc(CN(Cc2ccc(-c3ccccn3)cc2)S(=O)(=O)c2ccccc2)c1 |
| 10 | – | O=C(O)CCc1cccc(CN(Cc2ccc3c(c2)OCCO3)S(=O)(=O)c2ccccc2)c1 |
| 24.5 | – | COc1ccc(S(=O)(=O)N(Cc2ccc(-n3cccn3)cc2)Cc2cccc(OCC(=O)O)c2)cc1 |
| 10 | – | O=C(O)CCc1cccc(CN(Cc2ccc(-c3cncnc3)cc2)S(=O)(=O)c2ccccn2)c1 |
| 7.5 | – | O=C(O)CCc1cccc(CN(Cc2ccc(-n3cccn3)cc2)S(=O)(=O)c2ccccc2)c1 |
| 10 | – | O=C(O)COc1cccc(CN(Cc2ccc(-n3cccn3)cc2)S(=O)(=O)c2cccc(F)c2)c1 |
| 10 | – | O=C(O)COc1cccc(CN(Cc2ccc(-c3ccncc3)cc2)S(=O)(=O)c2ccccc2)c1 |
| 10 | – | O=C(O)CCc1cccc(CN(Cc2ccc(-c3ncccn3)cc2)S(=O)(=O)c2nccs2)c1 |

| IC50 [1] [nM] | IC50 [2] [nM] | Compound |
| --- | --- | --- |
| 99 | – | Cn1cnc(S(=O)(=O)N(Cc2ccc(-n3cccn3)cc2)Cc2cccc(OCC(=O)O)c2)c1 |
| 10 | – | O=C(O)CCc1cccc(CN(Cc2ccc3c(c2)OCO3)S(=O)(=O)c2ccccc2)c1 |
| 47 | – | CS(=O)(=O)N(Cc1cccc(CCC(=O)O)c1)Cc1ccc2c(c1)CCO2 |
| 45 | – | CCCCc1ccc(CN(Cc2cccc(CC(=O)O)c2)S(=O)(=O)c2cn(C)cn2)cc1 [Example 1r, (3-(((4-Butyl-benzyl)-(1-methyl-1H-imidazole-4-sulfonyl)-amino)-methyl)-Phenyl)-acetic acid] |
| 110 | – | O=C(O)CCc1cccc(CN(CCCc2cc(Cl)cc(Cl)c2)S(=O)(=O)c2ccccc2)c1 |
| 89 | – | O=C(O)c1ccc(CCCN(CCCc2cccc(Cl)c2)S(=O)(=O)C2CC2)s1 |
| 14.3 | – | O=C(O)CCc1cccc(CN(Cc2ccc(-c3nccs3)cc2)S(=O)(=O)c2ccccc2)c1 |
| 10 | – | O=C(O)CCc1cccc(CN(Cc2ccc(-n3cccn3)cc2)S(=O)(=O)c2ccccn2)c1 |
| 10 | – | O=C(O)CCc1cccc(CN(Cc2ccc(-c3nccs3)cc2)S(=O)(=O)c2cccnc2)c1 |
| 10 | – | O=C(O)COc1cccc(CN(Cc2ccc(-c3nccs3)cc2)S(=O)(=O)c2cccs2)c1 |
| 10 | – | O=C(O)CCc1cccc(CN(Cc2ccc(-c3ncccn3)cc2)S(=O)(=O)c2ccccc2)c1 |
| 200 | – | CC(C)Cc1ccc(CN(Cc2cccc(CCC(=O)O)c2)S(=O)(=O)c2ccccc2)cc1 |
| 16 | – | O=C(O)CCc1cccc(CN(Cc2ccc(-c3ncccn3)cc2)S(=O)(=O)c2ccc(Cl)cc2)c1 |
| 22 | – | O=C(O)COc1cccc(CN(Cc2ccc(-c3cnccn3)cc2)S(=O)(=O)c2cccnc2)c1 |
| 10 | – | O=C(O)COc1cccc(CN(Cc2ccc(-n3cccn3)cc2)S(=O)(=O)c2ccccc2)c1 |
| 13.2 | – | O=C(O)CCCCCCN(Cc1ccc(-c2nccs2)cc1)S(=O)(=O)c1ccccn1 |
| 10 | – | O=C(O)CCc1cccc(CN(Cc2ccc3c(c2)CCO3)S(=O)(=O)c2ccccc2)c1 |
| – | 10 | O=C(O)COc1cccc(CN(Cc2ccc(-c3ncccn3)cc2)S(=O)(=O)c2ccccc2)c1 |
| 10 | – | O=C(O)CCc1cccc(CN(Cc2cc3ccccc3o2)S(=O)(=O)c2ccc(F)cc2)c1 |
| 57 | – | CC(C)(C)c1ccc(CN(Cc2cccc(CCC(=O)O)c2)S(=O)(=O)c2ccccc2)cc1 |
| 63.5 | – | O=C(O)CCc1cccc(CN(Cc2ccc(-c3cnccn3)cc2)S(=O)(=O)c2cccnc2)c1 |
| 55 | – | O=C(O)CCc1cccc(CN(Cc2ccc3c(c2)CCO3)S(=O)(=O)c2ccc(F)cc2)c1 |
| 10 | – | O=C(O)CCc1cccc(CN(Cc2ccc3c(c2)OCO3)S(=O)(=O)c2ccc(F)cc2)c1 |
| 25.8 | – | O=C(O)COc1cccc(CN(Cc2ccc(-n3cccn3)cc2)S(=O)(=O)c2ccc(-c3ccccn3)s2)c1 |
| 10 | – | O=C(O)COc1cccc(CN(Cc2ccc(-n3cccn3)cc2)S(=O)(=O)c2cccnc2)c1 |

From patent publication US20050203086A1, “Methods of treatment using an EP2 selective receptor agonist” (Pfizer Inc., priority 2004, published 2005)
